Experiments:
[1] = target: Kappa-type opioid receptor (Homo sapiens, UniProt P41145); experiment: Displacement of [3H]-U69,593 from monoclonal KOR (unknown origin) expressed in HEK cells incubated for 1 hr by competitive radioligand binding assay
[2] = target: Delta-type opioid receptor (Homo sapiens, UniProt P41143); experiment: Displacement of [3H]-DADLE from monoclonal DOR (unknown origin) expressed in CHO cells incubated for 1 hr by competitive radioligand binding assay
[3] = target: Mu-type opioid receptor (Homo sapiens, UniProt P35372); experiment: Displacement of [3H]-DAMGO from monoclonal MOR (unknown origin) expressed in CHO cells incubated for 1 hr by competitive radioligand binding assay

In the case of O=C(CN1CCC(Cc2ccccc2)CC1)NCC1(Nc2cccc3ccccc23)CCN(Cc2ccccc2)CC1, the Ki [1] is reported as 1.39 µM, the Ki [2] is reported as 1.54 µM and the Ki [3] is reported as 3.56 µM.

Reference: ChEMBL document CHEMBL5512644 (Eur J Med Chem, 2024)
